Data from ChEMBL document CHEMBL1137386, “Pyrrolidine carboxamides as a novel class of inhibitors of enoyl acyl carrier protein reductase from Mycobacterium tuberculosis” (J Med Chem, 2006).

target: T1, Enoyl-[acyl-carrier-protein] reductase [NADH] (Mycobacterium tuberculosis, UniProt P9WGR1)
T1 sequence (P9WGR1 whole entry): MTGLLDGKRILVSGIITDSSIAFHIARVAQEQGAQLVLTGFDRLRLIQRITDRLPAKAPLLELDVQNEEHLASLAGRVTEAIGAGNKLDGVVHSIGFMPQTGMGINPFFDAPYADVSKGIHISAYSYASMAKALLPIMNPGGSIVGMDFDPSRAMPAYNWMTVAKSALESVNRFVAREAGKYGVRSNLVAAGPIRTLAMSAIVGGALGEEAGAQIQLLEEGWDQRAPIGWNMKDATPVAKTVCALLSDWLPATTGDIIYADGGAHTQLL

| Structure (SMILES) | IC50 [µM] |
| --- | --- |
| CCn1c2ccccc2c2cc(NC(=O)C3CC(=O)N(C4CCCCC4)C3)ccc21 (stereo not given) | 2.57 |
| CC(=O)Nc1ccc(NC(=O)C2CC(=O)N(C3CCCCC3)C2)cc1 (stereo not given) | > 100 |
| COC(=O)c1ccccc1NC(=O)C1CC(=O)N(C2CCCCC2)C1 (stereo not given) | 34.9 |
| Cc1cc(C)cc(NC(=O)C2CC(=O)N(C3CCCCC3)C2)c1 (stereo not given) | 3.14 |
| O=C(Nc1ccc2c(c1)OCCO2)C1CC(=O)N(C2CCCCC2)C1 (stereo not given) | > 100 |
| O=C(Nc1ccc(F)c(Cl)c1)C1CC(=O)N(C2CCCCC2)C1 (stereo not given) | 14.8 |
| Cc1cc(NC(=O)C2CC(=O)N(C3CCCCC3)C2)ccc1Br (stereo not given) | 37.4 |
| CCCOc1ccc(N2CC(C(=O)Nc3cccc(Cl)c3)CC2=O)cc1 (stereo not given) | > 100 |
| O=C(Nc1ccc(Oc2ccccc2)cc1)C1CC(=O)N(C2CCCCC2)C1 (stereo not given) | > 100 |
| Cc1cccc(NC(=O)C2CC(=O)N(C3CCCCC3)C2)c1 (stereo not given) | 16.8 |
| O=C(Nc1cccc([N+](=O)[O-])c1)C1CC(=O)N(C2CCCCC2)C1 (stereo not given) | 10.6 |
| O=C(Nc1cccc(Br)c1)C1CC(=O)N(c2ccc(F)cc2)C1 (stereo not given) | 29.2 |
| O=C(Nc1cc(-c2ccccc2)c(O)c(-c2ccccc2)c1)C1CC(=O)N(C2CCCCC2)C1 (stereo in doubt; p64) | 0.14 |
| O=C(Nc1cccc(C(F)(F)F)c1)C1CC(=O)N(C2CCCCC2)C1 (stereo not given) | 3.51 |
| O=C(Nc1cccc(Cl)c1)C1CC(=O)N(C2CCCCC2)C1 (stereo not given) | 1.35 |
| O=C(Nc1cc(-c2ccccc2)c(O)c(-c2ccccc2)c1)C1CC(=O)N(C2CCCCC2)C1 (stereo not given) | 0.062 |
| O=C(C1CC(=O)N(C2CCCCC2)C1)N1CCN(C(c2ccc(F)cc2)c2ccc(F)cc2)CC1 (stereo not given) | 5.51 |
| O=C(Nc1cccc2c1Cc1ccccc1-2)C1CC(=O)N(C2CCCCC2)C1 (stereo not given) | 1.39 |
| COc1cc(NC(=O)C2CC(=O)N(C3CCCCC3)C2)cc(C(F)(F)F)c1 (stereo not given) | 1.3 |
| O=C(Nc1ccccc1Br)C1CC(=O)N(C2CCCCC2)C1 (stereo not given) | > 100 |
| Cc1c(Cl)cccc1NC(=O)C1CC(=O)N(c2ccc(Br)cc2)C1 (stereo not given) | > 100 |
| O=C(Nc1cc(F)cc(F)c1)C1CC(=O)N(C2CCCCC2)C1 (stereo not given) | 1.49 |
| O=C(Nc1ccc(Cl)cc1)C1CC(=O)N(C2CCCCC2)C1 (stereo not given) | > 100 |
| Cc1c(Cl)cccc1NC(=O)C1CC(=O)N(c2cccc([N+](=O)[O-])c2)C1 (stereo not given) | > 100 |
| O=C(Nc1cc(Cl)ccc1Cl)C1CC(=O)N(C2CCCCC2)C1 (stereo not given) | 56.5 |

| Structure (SMILES) | IC50 [µM] |
| --- | --- |
| Cc1ccc(N2CC(C(=O)Nc3cccc(Cl)c3)CC2=O)cc1 (stereo not given) | > 100 |
| Cc1ccc(N2CC(C(=O)Nc3cccc(Br)c3)CC2=O)cc1C (stereo not given) | > 100 |
| CC(=O)c1ccc(NC(=O)C2CC(=O)N(C3CCCCC3)C2)cc1 (stereo not given) | 73.6 |
| Cc1ccc(N2CC(C(=O)Nc3cccc(Cl)c3C)CC2=O)cc1 (stereo not given) | > 100 |
| Cc1c(Cl)cccc1NC(=O)C1CC(=O)N(c2ccc(OC(C)C)cc2)C1 (stereo not given) | > 100 |
| O=C(C1CC(=O)N(C2CCCCC2)C1)N1CCc2ccccc21 (stereo not given) | 5.1 |
| O=C(Nc1cccc(Cl)c1)C1CC(=O)N(c2ccccc2)C1 (stereo not given) | 3.94 |
| O=C(Nc1ccc(Cl)cc1Cl)C1CC(=O)N(C2CCCCC2)C1 (stereo not given) | 56 |
| Cc1ccc(C)c(NC(=O)C2CC(=O)N(C3CCCCC3)C2)c1 (stereo not given) | 10 |
| CCOc1ccc(NC(=O)C2CC(=O)N(C3CCCCC3)C2)cc1 (stereo not given) | > 100 |
| Cc1c(Cl)cccc1NC(=O)C1CC(=O)N(c2ccccc2)C1 (stereo not given) | > 100 |
| Cc1cc([N+](=O)[O-])ccc1NC(=O)C1CC(=O)N(C2CCCCC2)C1 (stereo not given) | 31.4 |
| Cc1cccc(C)c1NC(=O)C1CC(=O)N(C2CCCCC2)C1 (stereo not given) | > 100 |
| O=C(Nc1cc(-c2ccccc2)c(O)c(-c2ccccc2)c1)C1CC(=O)N(C2CCCCCCC2)C1 (stereo not given) | 1.29 |
| Cc1ccc(C(c2ccccc2)N2CCN(C(=O)C3CC(=O)N(C4CCCCC4)C3)CC2)cc1 (stereo not given) | 5.18 |
| O=C(Nc1cccc(OCc2ccccc2)c1)C1CC(=O)N(C2CCCCC2)C1 (stereo not given) | 3.39 |
| CC(C)c1cccc(NC(=O)C2CC(=O)N(C3CCCCC3)C2)c1 (stereo not given) | 5.55 |
| O=C(Nc1ccc(I)cc1)C1CC(=O)N(C2CCCCC2)C1 (stereo not given) | 14.5 |
| O=C(C1CC(=O)N(C2CCCCC2)C1)N1CCN(C(c2ccccc2)c2ccc(Cl)cc2)CC1 (stereo not given) | 4.47 |
| O=C(C1CC(=O)N(C2CCCCC2)C1)N1CCN(C(c2ccccc2)c2ccc(F)cc2)CC1 (stereo not given) | 6.41 |
| Cc1ccc(N2CC(C(=O)Nc3cccc(Br)c3)CC2=O)cc1 (stereo not given) | > 100 |
| Cc1c(Cl)cccc1NC(=O)C1CC(=O)N(C2CCCCC2)C1 (stereo not given) | 23.1 |
| O=C(Nc1cc(C(F)(F)F)cc(C(F)(F)F)c1)C1CC(=O)N(C2CCCCC2)C1 (stereo not given) | 3.67 |
| COc1ccc(Cl)cc1NC(=O)C1CC(=O)N(C2CCCCC2)C1 (stereo not given) | 1.6 |
| O=C(Nc1ccc(Br)cc1)C1CC(=O)N(C2CCCCC2)C1 (stereo not given) | 28 |
